The experiment addresses T1, WT RyR2 (Mus musculus, UniProt E9Q401).
T1 construct: expressed in transfected cells
Put plainly: Time-lapse [Ca2+]ER assay (RyR2 R-CEPIA1er assay) in HEK-293 cells. Format: cell-based. Also on record: RyR2 effect class: key to the marks not given beside the values. On the procedure: HEK-293 cells stably expressing R-CEPIA1er and WT RyR2 (generous gift from Takashi Murayama, Juntendo University School of Medicine, Tokyo) were cultured in Dulbecco's Modified Eagle medium (DMEM, Thermo Fisher Scientific, Darmstadt, Germany) supplemented with 10% fetal bovine serum (FBS, Thermo Fisher Scientific, Darmstadt, Germany), 0.9% Penicillin/Streptomycin (Merck KGaA, Darmstadt, Germany), 15ug/mL Blasticidine (Invivogen, Toulouse, France), 100 µg/mL Hygromycin (Merck KGaA, Darmstadt, Germany) and 400 µg/mL G418 (Thermo Fisher Scientific, Darmstadt, Germany) in a humidified 5% COz incubator at 37 °C. […]
The fluorescent plate reader [Ca^2+]ER assay was performed according to the slightly modified protocol of Murayama & Kurebayashi [T. Murayama, N. Kurebayashi, Assays for Modulators of Ryanodine Receptor (RyR)/Ca(2+) Release Channel Activity for Drug Discovery for Skeletal Muscle and Heart Diseases. […] After the cells were inducted with Doxycycline for 24 h, changes in ER calcium concentrations [Ca^2+]ER were measured on a multiwell plate reader TECAN Spark 20M at 37 °C. […] The time courses were recorded in each well. Fluorescence was evoked by 560 nm excitation wavelength and collected in a bottom-read mode at 610 nm. Data was recorded every 10 s, exposure - 20 flashes, excitation bandwidth - 20 nm, emission bandwidth - 20 nm. […]

Amino acid sequences for entries named in this document (tags omitted).
UniProt E9Q401, whole entry: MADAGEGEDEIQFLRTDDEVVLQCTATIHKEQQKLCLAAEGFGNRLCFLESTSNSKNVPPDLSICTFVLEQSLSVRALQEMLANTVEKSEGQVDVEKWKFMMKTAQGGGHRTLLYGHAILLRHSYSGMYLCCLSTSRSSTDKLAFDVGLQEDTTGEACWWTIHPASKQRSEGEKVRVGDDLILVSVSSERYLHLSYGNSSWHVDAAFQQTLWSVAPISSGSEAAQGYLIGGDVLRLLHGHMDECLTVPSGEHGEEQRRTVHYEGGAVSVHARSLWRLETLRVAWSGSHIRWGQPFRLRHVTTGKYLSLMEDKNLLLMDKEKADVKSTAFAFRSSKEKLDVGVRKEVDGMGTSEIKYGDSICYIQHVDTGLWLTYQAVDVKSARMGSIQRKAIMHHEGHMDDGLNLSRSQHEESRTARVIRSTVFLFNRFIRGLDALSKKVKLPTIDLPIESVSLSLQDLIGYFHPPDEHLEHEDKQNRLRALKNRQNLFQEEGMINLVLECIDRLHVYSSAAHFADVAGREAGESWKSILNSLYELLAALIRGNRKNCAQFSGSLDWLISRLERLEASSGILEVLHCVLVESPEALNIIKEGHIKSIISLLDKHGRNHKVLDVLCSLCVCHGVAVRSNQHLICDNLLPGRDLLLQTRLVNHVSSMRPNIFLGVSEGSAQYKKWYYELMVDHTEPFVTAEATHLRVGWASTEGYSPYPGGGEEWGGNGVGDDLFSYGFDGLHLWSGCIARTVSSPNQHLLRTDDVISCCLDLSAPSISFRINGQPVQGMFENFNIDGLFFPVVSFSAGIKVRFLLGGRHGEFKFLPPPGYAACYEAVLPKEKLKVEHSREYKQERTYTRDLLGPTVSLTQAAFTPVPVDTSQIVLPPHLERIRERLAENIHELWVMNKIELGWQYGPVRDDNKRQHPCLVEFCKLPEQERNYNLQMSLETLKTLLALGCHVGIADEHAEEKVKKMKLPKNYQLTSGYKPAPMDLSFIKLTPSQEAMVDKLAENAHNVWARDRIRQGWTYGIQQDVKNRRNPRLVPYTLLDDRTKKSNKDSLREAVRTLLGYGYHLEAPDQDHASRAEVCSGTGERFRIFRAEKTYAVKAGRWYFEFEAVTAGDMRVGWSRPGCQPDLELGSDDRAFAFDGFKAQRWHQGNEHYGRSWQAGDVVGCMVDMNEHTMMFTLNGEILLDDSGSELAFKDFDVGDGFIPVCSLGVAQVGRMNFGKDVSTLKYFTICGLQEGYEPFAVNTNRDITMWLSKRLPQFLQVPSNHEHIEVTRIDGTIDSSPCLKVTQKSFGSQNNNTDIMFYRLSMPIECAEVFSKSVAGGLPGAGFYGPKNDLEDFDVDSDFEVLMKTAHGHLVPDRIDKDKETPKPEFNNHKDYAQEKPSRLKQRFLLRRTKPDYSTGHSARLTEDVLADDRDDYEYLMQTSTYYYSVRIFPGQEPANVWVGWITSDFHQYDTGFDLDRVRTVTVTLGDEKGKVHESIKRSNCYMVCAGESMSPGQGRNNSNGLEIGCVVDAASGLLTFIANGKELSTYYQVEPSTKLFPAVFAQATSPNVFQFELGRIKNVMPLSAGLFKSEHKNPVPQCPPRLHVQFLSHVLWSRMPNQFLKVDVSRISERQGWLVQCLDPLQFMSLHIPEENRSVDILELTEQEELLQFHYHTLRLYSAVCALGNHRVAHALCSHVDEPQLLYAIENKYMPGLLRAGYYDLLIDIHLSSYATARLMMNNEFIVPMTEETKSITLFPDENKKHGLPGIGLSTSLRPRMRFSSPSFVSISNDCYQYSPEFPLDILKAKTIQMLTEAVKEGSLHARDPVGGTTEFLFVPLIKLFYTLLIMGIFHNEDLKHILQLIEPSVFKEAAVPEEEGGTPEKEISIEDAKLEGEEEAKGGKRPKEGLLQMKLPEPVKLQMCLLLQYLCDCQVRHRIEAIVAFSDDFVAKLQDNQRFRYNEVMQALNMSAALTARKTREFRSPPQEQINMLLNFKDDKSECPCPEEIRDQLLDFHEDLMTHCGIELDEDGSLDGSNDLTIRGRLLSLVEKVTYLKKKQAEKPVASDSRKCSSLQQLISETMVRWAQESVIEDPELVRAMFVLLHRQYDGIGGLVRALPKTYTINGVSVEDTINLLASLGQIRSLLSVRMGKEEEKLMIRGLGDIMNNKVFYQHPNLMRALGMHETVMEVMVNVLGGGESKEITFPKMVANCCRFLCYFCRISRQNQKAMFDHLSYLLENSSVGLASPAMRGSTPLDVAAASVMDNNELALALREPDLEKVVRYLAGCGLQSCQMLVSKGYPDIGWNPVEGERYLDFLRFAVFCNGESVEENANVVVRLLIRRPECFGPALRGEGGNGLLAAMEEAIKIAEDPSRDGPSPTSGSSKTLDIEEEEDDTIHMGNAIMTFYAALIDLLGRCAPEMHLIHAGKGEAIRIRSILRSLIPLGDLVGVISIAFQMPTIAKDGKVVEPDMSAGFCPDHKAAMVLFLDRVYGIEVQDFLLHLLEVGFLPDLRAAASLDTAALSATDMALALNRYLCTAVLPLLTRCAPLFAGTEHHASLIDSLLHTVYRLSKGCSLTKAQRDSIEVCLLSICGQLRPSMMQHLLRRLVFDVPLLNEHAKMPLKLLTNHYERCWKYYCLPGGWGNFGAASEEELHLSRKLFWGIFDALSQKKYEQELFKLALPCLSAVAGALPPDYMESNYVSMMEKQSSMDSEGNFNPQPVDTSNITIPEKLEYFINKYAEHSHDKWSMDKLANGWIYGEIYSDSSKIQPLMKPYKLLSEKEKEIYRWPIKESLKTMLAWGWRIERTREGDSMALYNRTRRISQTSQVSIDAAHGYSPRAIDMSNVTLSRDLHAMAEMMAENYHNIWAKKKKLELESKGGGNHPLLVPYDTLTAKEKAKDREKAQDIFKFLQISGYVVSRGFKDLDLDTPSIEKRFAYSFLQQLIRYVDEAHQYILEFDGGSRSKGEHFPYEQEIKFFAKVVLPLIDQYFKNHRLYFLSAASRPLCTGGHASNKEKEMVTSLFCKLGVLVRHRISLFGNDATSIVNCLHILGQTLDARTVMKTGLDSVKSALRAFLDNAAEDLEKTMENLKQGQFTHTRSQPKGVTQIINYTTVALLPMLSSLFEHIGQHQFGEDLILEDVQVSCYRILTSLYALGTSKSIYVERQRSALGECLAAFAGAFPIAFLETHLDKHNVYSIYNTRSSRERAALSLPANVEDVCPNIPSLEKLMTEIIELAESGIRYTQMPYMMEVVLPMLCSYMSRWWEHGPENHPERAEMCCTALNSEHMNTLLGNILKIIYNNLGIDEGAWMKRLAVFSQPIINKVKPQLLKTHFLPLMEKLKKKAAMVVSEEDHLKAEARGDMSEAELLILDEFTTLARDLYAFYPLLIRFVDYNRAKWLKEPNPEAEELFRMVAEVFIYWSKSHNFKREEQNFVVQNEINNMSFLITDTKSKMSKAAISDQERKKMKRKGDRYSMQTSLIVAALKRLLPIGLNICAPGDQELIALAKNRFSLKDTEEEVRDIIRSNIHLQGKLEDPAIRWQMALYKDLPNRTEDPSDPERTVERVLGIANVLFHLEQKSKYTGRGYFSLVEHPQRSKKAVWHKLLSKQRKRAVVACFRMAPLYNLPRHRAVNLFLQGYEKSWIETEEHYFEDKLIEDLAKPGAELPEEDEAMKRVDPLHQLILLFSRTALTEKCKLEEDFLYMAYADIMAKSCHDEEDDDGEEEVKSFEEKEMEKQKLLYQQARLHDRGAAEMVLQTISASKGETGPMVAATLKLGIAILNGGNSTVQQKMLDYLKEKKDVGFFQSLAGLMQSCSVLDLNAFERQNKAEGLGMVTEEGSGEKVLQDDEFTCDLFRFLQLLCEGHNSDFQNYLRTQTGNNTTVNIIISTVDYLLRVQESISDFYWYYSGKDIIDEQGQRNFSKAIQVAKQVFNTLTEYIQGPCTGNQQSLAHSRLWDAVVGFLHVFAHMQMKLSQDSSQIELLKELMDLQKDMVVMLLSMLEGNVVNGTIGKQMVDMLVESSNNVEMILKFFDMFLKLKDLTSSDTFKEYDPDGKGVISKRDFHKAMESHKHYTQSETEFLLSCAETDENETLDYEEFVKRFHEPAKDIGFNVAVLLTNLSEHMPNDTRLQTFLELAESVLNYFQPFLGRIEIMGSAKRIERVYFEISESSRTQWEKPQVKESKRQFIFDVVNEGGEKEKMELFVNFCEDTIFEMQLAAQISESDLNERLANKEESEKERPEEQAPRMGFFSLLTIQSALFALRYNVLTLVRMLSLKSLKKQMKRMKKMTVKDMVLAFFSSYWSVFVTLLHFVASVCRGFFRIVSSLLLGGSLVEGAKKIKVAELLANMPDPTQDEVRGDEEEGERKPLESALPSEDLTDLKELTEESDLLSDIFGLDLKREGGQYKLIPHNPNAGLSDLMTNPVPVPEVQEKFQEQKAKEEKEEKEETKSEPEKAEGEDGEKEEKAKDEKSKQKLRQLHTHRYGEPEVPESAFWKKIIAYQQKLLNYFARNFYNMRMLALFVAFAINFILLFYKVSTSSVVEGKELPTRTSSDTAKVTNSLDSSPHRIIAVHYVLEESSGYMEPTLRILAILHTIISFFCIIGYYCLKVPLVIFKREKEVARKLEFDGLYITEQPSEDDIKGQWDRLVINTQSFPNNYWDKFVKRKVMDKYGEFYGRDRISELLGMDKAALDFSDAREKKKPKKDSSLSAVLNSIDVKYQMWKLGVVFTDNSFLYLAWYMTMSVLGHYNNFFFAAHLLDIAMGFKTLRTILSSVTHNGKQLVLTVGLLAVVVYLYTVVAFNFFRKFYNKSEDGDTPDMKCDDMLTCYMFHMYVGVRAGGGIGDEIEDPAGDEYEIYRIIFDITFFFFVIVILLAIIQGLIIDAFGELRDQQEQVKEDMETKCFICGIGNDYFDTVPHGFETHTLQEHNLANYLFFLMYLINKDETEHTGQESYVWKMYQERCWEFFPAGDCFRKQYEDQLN

With `COc1ccc2c(c1)CN(C)CCS2` [Compound S107, reference compound], where the note is “25 µM in RyR2 R-CEPIA1er assay”, the RyR2 effect class entry is listed as “+++”. Also, the “effect on [Ca^2+]ER (R-CEPIA1er fluorescence), in words” value (1 mM, vs. 0.1 v/v% DMSO) was “increase in R-CEPIA1er fluorescence”.

The record behind these values is patent EP4548971A1, “1,4-BENZOTHIAZEPINES AND RELATED COMPOUNDS WITH CYCLOPROPANOL GROUPS AS MULTI-TARGETED DRUGS” (Georg-August-Universität Göttingen Stiftung Öffentlichen …, priority 2023, dated 2025).
